According to publication PMC11329725 (Nature Communications, 2024):

Biological target: T1, His6-HDOB1 (human BRCA2 helical domain and OB fold 1, residues 2479-2807) (human, UniProt P51587 2479-2807)
T1 sequence: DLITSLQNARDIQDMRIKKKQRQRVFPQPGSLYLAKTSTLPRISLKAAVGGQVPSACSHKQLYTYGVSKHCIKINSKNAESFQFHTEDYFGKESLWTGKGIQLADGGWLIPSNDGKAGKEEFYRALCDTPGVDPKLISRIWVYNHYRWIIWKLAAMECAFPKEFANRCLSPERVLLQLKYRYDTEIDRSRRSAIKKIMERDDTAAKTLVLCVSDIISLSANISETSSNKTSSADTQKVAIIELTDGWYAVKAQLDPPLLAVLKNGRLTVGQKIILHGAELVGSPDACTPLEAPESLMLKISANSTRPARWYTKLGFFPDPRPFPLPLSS
Experiment: co-purification

binding result: binds
B1: GST-DSS1 (wild type), co-expressed with His6-HDOB1 in E. coli (natural protein)
chain: MSEKKQPVDLGLLEEDDEFEEFPAEDWAGLDEDEDAHVWEDNWDDDNVEDDFSNQLRAELEKHGYKMETS
